From article PMC11272584 (Nature Metabolism, 2024) come the findings set out here.

Changes are numbered by the printed parent chain.

The target in one test is T1, GIPR E288G (Homo sapiens, UniProt P48546, E288G).
T1 sequence (P48546 22-466 E288G): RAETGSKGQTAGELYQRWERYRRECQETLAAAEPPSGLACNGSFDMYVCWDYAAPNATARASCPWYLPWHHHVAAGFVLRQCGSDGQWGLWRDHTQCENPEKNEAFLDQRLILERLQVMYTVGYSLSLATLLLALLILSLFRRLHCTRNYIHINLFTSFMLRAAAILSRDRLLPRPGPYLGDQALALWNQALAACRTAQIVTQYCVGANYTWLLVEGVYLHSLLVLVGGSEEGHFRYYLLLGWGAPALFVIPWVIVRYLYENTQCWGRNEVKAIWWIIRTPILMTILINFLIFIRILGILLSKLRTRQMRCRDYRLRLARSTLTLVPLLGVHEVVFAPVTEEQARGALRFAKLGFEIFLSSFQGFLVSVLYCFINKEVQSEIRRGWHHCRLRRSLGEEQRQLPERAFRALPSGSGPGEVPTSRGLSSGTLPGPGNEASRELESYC
Nature of the test: cAMP accumulation. Format: cell-based. Set-up: host or cells: HEK293. In general terms: Changes in cAMP serve as a functional read-out for many G protein-coupled receptors.

A further test concerns the target T2, GIPR R12Q (Homo sapiens, UniProt P48546).
T2 sequence (P48546 22-466): T1 sequence (P48546 22-466 E288G) with G267E
The following applies: GIPR R12Q (ECD), mean, n = 5, duplicate.

The target of the next test is T3, GIPR E418K (Homo sapiens, UniProt P48546, E418K).
T3 sequence (P48546 22-466 E418K): T1 sequence (P48546 22-466 E288G) with G267E, E397K
The experiment in a line: cAMP accumulation. It is filed as cell-based. Also noted: host or cells: HEK293.

A further test deals with T4, GIPR R43G (Homo sapiens, UniProt P48546, R43G).
T4 sequence (P48546 22-466 R43G): T1 sequence (P48546 22-466 E288G) with R22G, G267E
Conditions: GIPR R43G (ECD), mean, n = 5, duplicate.

In the next test the target is T5, GIPR K397N (Homo sapiens, UniProt P48546, K397N).
T5 sequence (P48546 22-466 K397N): T1 sequence (P48546 22-466 E288G) with G267E, K376N
Nature of the test: cAMP accumulation. Set-up: host or cells: HEK293. It is filed as cell-based.

Regarding “glucose-dependent insulinotropic polypeptide [GIP]”, the “cAMP (Emax)” value is given as 83 % of WT GIPR activity at GIPR E288G (HEK293, GIP(1–42) 1 pM–100 nM, 30 min 37 °C, mean of n = 7); 80 % of WT GIPR activity on GIPR E418K (HEK293, GIP(1–42) 1 pM–100 nM, 30 min 37 °C, mean of n = 6); 68 % of WT GIPR activity on GIPR K397N (HEK293, GIP(1–42) 1 pM–100 nM, 30 min 37 °C, mean of n = 3). Moreover, the “logEC50 (cAMP)” value at GIPR E288G (HEK293, Hill slope 1.0, mean of n = 7) is -8.5; on GIPR E418K (HEK293, Hill slope 1.0, mean of n = 6), -11.4; at GIPR K397N (HEK293, Hill slope 1.0, mean of n = 3) it was -10.7. For the same substance, the “logEC50 (Arrestin)” value at GIPR R12Q (Hill slope 1.0) was -8.7; on GIPR R43G (Hill slope 1.0) it was -9.1. The “Arrestin (Emax)” value was 92 on GIPR R12Q (normalized to WT GIPR) and 48 at GIPR R43G (normalized to WT GIPR).
